Test system: Kidney
Assay: Induction of HO-1 protein level in po dosed Wistar rat kidney measured at 6 hrs by ELISA
Type: ADME, organism-based
Conditions: in vivo, dose 0.1-3 mg/kg

**Q.** With `CCOc1cccnc1Cc1ccc([C@H](F)C(=O)N[C@H](c2ccc(C)cc2)[C@@H](C)C(=O)O)cc1` as the molecule, how does the Activity read?
**A.** Dose-Dependent Effect

**Q.** With `Cc1ccc([C@H](F)C(=O)N[C@H](c2ccc(C)c(OCC3(C#N)CC3)c2)[C@@H](C)C(=O)O)cc1` as the molecule, how does the Activity read?
**A.** Dose-Dependent Effect

From ChEMBL document CHEMBL5518210 (J Med Chem, 2024)
